According to patent US20180127465A1 (priority 2015, published 2018):
Marks after values point to notes of the source that are not given here.

Experiments:
MOR [1] = biological target: MOR (Homo sapiens, UniProt P35372); experiment: [35S]GTPγS assay, MOR antagonist mode; conditions: FIG. 4A
DOR [2] = biological target: T1, DOR (Homo sapiens, UniProt P41143); experiment: [35S]GTPγS assay, DOR antagonist mode; conditions: FIG. 4A
KOR [3] = biological target: T2, KOR (Homo sapiens, UniProt P41145); experiment: [35S]GTP-γ-S binding assay, agonist mode, hKOR; conditions: Table 6; summary in words from binding and agonist/antagonist modes
KOR [4] = biological target: T2, KOR; experiment: Radioligand binding at KOR ([3H]Nor-BNI), Table 3; conditions: read-out: Ki KOR [3H]Nor-BNI
MOR [5] = biological target: MOR (Rattus norvegicus, UniProt P33535); experiment: Radioligand competition binding at MOR ([3H]DAMGO); conditions: read-out: Ki MOR, Table 6, Kd=0.85 nM, membranes of transfected HNB9.10 cells
DOR [6] = biological target: T1, DOR; experiment: Radioligand competition binding at DOR ([3H]DPDPE); conditions: read-out: Ki DOR, Table 6, Kd=0.50 nM, membranes of transfected HNB9.10 cells
KOR [7] = biological target: T2, KOR; experiment: Radioligand competition binding at KOR ([3H]U69,593), Table 6; conditions: read-out: Ki KOR, [3H]U69,593, Kd=5.3 nM, membranes of transfected HNB9.10 cells
KOR [8] = biological target: T2, KOR; experiment: [35S]GTP-γ-S binding assay, antagonist mode, hKOR; conditions: Table 6, % relative to 10 μM naloxone inhibition of 100 nM U50,488
MOR [9] = conditions: literature value; cited from earlier work

Dmt-Pro-Phe-Phe(4-Cl)-Ppp
activity at MOR in words (MOR [1]): do not possess antagonist activity | activity at DOR in words (DOR [2]): do not possess antagonist activity

CCCC[C@@H](NC(=O)[C@@H](N)Cc1ccc(O)cc1)C(=O)NCC(=O)N[C@@H](Cc1ccc(F)cc1)C(N)=O
KOR function (KOR [3]): weak agonist | Ki (KOR [4]): 210 nM | Ki (MOR [5]): 2.3 nM | Ki (DOR [6]): 0.44 nM | Ki (KOR [7]): 7.8 nM

C[C@@H](NC(=O)[C@@H](N)Cc1ccc(O)cc1)C(=O)NCC(=O)N[C@@H](Cc1ccccc1)C(N)=O
KOR function (KOR [3]): no function | KOR [35S]GTPγS-binding Imax at 10 μM (KOR [8]): <10^h %

N=C(N)NCCC[C@@H](NC(=O)[C@@H](N)Cc1ccc(O)cc1)C(=O)N[C@@H](Cc1ccccc1)C(=O)N[C@@H](CCCCN)C(N)=O
preference for MOR over DOR (MOR [9]): 11,000 fold | preference for MOR over KOR (MOR [9]): 2,500 fold

NC(=O)[C@H](Cc1ccccc1)NC(=O)[C@H](Cc1c[nH]c2ccccc12)NC(=O)[C@@H]1CCCN1C(=O)[C@@H](N)Cc1ccc(O)cc1
preference for MOR over DOR (MOR [9]): 4,000 fold | preference for MOR over KOR (MOR [9]): 15,000 fold
